Results: article PMC6130577, “Rational screening of peroxisome proliferator-activated receptor-γ agonists from natural products: potential therapeutics for heart failure” (Pharmaceutical Biology, 2016)

Chains of the proteins cited; added tags and fusions are not shown. Residues count along the entry.
UniProt P37231, 238-503 limits assumed: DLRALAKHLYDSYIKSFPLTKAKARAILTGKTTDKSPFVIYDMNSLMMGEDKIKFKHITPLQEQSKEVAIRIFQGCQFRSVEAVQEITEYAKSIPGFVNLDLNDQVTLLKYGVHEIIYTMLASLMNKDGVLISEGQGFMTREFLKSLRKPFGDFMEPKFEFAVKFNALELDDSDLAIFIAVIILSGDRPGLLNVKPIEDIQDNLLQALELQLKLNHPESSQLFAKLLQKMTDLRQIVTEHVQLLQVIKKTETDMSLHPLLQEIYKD

Target: human PPARγ (hPPARγ) (Homo sapiens, UniProt P37231)
Experiment: Transactivation reporter assay (chimeric GAL4-PPAR reporter-gene assay in CV-1 cells)
Type: cell-based
Settings: for EC50: CV-1 cells, 48 h, luciferase, triplicate; for Agonistic intensity: percentage of agonistic potency relative to full agonist Pioglitazone at their respective EC50 concentration

EC50 [µM]	Agonistic intensity [%]	Structure (SMILES)
2.1	63	Cc1nc(C(C#N)=NNc2ccccc2[N+](=O)[O-])sc1N=Nc1ccccc1
5.6	37	COc1cc(/C=C/C(=O)NCCc2ccc(O)cc2)ccc1O
